Measured values from patent US20170042860A1.

Target: RUMGNA_01526 (tryptophan decarboxylase from Ruminococcus gnavus ATCC 29149), one monomer of the homodimer (Ruminococcus gnavus ATCC 29149) (UniProt A7B1V0)
Test: X-ray crystal structure of RUMGNA_01526 at 2.8 A

area buried at the dimer interface: 4560 Å^2
Substance: RUMGNA_01526 (tryptophan decarboxylase from Ruminococcus gnavus ATCC 29149), one monomer of the homodimer (from UniProt A7B1V0 1-490) (enzyme)
